## Antibody variant affinities, Ab-14 heavy chain, assay 1

The measurements come from Engelhart et al. 2022 (doi:10.1038/s41597-022-01779-4) through the FLAb antibody collection.

Target peptide (SARS-CoV-2 spike, HR2 region): PDVDLGDISGINAS

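Phage display of a naive human antibody library on the peptide gave the parent. The library (AAYL49) carries one to three amino acid substitutions per variant, with no insertions or deletions. The scFvs were displayed on barcoded MATa yeast, the peptide on MATalpha yeast. The frequency of each diploid, read from paired DNA barcodes, reflects how well the two displayed proteins bind. Scores were corrected for input abundance and mapped to Kd with protein pairs of known affinity run in the same pool. There are three technical replicates.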

Parent scFv Ab-14: VH joined to VL by a 15-residue (Gly4Ser)3 linker. Changes lie in the heavy chain CDRs alone.
VH: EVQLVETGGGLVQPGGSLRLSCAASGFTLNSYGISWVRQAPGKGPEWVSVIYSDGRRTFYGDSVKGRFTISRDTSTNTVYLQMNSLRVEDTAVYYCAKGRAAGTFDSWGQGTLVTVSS
VL: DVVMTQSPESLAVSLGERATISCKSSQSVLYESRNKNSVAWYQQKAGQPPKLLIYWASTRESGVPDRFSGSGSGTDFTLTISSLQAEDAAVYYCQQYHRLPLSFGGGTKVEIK

Variants are written as CDR1, CDR2 and CDR3 of the heavy chain (limits as in the source). Parent: GFTLNSYGIS, VIYSDGRRTFYGDSVK, GRAAGTFDS.
Numbers give log10(Kd / nM), so 0 is 1 nM and 3 is 1 µM. Smaller is tighter.
"n.d." marks a missing value. The strain was present, yet no cells mated with the target were sequenced in that replicate, which points to weak or no binding.
Parent in this assay: reference entry 0.65, copy in this library 4.11 (one replicate of three).

| # | log10 Kd, replicates | CDR-H1 | CDR-H2 | CDR-H3 |
|---|---|---|---|---|
| 1 | n.d. / n.d. / n.d. | GFTLNQYGIS | VIRSDGRRTFGGDSVK | GRAAGTFDS |
| 2 | n.d. / n.d. / 4.06 | GFFLNSYGIS | VIYSDGRRTFWGDSVK | GRAAGTFMS |
| 3 | n.d. / n.d. / n.d. | GFTLNSYGIS | VVYSGGRRTFYGDSVK | GRAAGTFDL |
| 4 | n.d. / n.d. / n.d. | GFTLNSFGIS | TIYSDGRRTFYGDSMK | GRAAGTFDS |
| 5 | 4.27 / 3.41 / 3.72 | GNTLNSYGIS | VIYSDGRRTFYGDSVK | GQAAGTFDG |
| 6 | n.d. / n.d. / n.d. | GFTLNSYGIS | VIYSDGRRTFYGDSVI | GRPCGTFDS |
| 7 | n.d. / n.d. / 5.24 | GFTLNSCGDS | VIYSDGRRTFYGDSTK | GRAAGTFDS |
| 8 | n.d. / n.d. / n.d. | GFTLNSYGIS | VIYSDGRRTFYGDSVF | GRAAGTFTG |
| 9 | n.d. / n.d. / n.d. | GFTNNSYGIS | VKYSDGRRTFYGDSVW | GRAAGTFDS |
| 10 | n.d. / n.d. / n.d. | GFTLNSYGIL | VIYSDGRRTTYGDSVK | GRVAGTFDS |
| 11 | 2.71 / n.d. / n.d. | GFTLNSYGIG | FIYSDGRRTFYGDSVK | GRAAGTFVS |
| 12 | 5.76 / n.d. / n.d. | GFTLNSYGIS | VIYSDGRRTMYGMSVK | GRRAGTFDS |
| 13 | n.d. / n.d. / n.d. | GFTLNSYGIS | VPYSDGRRTFYGGSVK | GRAAGTFDV |
| 14 | n.d. / n.d. / n.d. | GFTLNSYNIS | VIYSPARRTFYGDSVK | GRAAGTFDS |
| 15 | n.d. / n.d. / n.d. | GFTLNSYGCG | VIYSDGRRTFYGDSVI | GRAAGTFDS |
| 16 | n.d. / n.d. / n.d. | GFTLRSYGIS | VIYSDGRRTFYGPSVK | GRAAGTFAS |
| 17 | n.d. / n.d. / n.d. | GCTLNSYGIS | VIYSDDRRTPYGDSVK | GRAAGTFDS |
| 18 | 2.07 / 2.47 / 2.05 | GHTLNSYGIS | VIYSDGRKTFYGDSVK | GRAAGTFVS |
| 19 | 2.88 / 3.43 / n.d. | GFTLNLYGIS | VIYSDGRRTFYGDSCK | GRAAGTFDS |
| 20 | 2.63 / 3.11 / n.d. | GFTLNSNGIS | VIYSDGRRTFYGDSVK | GRAAGTSDS |
| 21 | n.d. / 3.49 / 5.25 | GFTLNSYGIS | VHYSDGRRTFYGDSVK | QRIAGTFDS |
| 22 | n.d. / n.d. / n.d. | GFTLNWYGIS | VIYSDGRRTFYGDSVK | GREAFTFDS |
| 23 | n.d. / n.d. / n.d. | GFTLNSYGIS | VIYSDDRRTFYGDSVK | LRAAGTTDS |
| 24 | n.d. / n.d. / n.d. | GFTLNSYTIS | VIYHDGRRTFYGDSVK | GRAASTFDS |
| 25 | 3.82 / 4.02 / n.d. | GFTLNSYGQS | VIYSDGRRTFYWDSVK | GRAAGIFDS |
| 26 | n.d. / n.d. / n.d. | FFTLNSYGIS | VIYSDGRRCFYGDSVK | GRAAGTFDH |
| 27 | n.d. / n.d. / n.d. | GFTLNSYGIS | VIYSDGRRTTYGRSVK | GRAAGHFDS |
| 28 | n.d. / n.d. / n.d. | GFTLNSYGIS | VIYSRGRRTKYGDSVK | GRAAGTFDS |
| 29 | n.d. / n.d. / n.d. | GFTLNSYKIS | VIYSDGRRTIYGDSVK | GRAAGTFDS |
| 30 | n.d. / n.d. / n.d. | GFTANSYGWS | VSYSDGRRTFYGDSVK | GRAAGTFDS |
| 31 | n.d. / n.d. / n.d. | GSTLNSYGIV | VIYSDGWRTFYGDSVK | GRAAGTFDS |
| 32 | n.d. / 5.82 / n.d. | GFFLNSYGIL | VIYSDGRRTFYGDSVK | GRAIGTFDS |
| 33 | n.d. / n.d. / n.d. | GFTLNSYGIS | VAYSDGWRTFYGDSQK | GRAAGTFDS |
| 34 | 3.11 / 4.58 / 3.36 | GFVLNSYGWS | VIYSDGRRTHYGDSVK | GRAAGTFDS |
| 35 | 4.62 / 3.26 / n.d. | GFTLWSYGIS | VIYSDGRRTWYGDSVE | GRAAGTFDS |
| 36 | n.d. / n.d. / n.d. | GFTLNSYGIS | VIYSDGRRTFYGDSVK | GRAAMTFDF |
| 37 | n.d. / n.d. / 3.33 | GVTLNSCGIS | VIYSDGYRTFYGDSVK | GRAAGTFDS |
| 38 | 3.59 / 3.03 / 3.89 | GFTLNSYGIS | VIYPDGRRTFYGDSCK | GRAAGTFDS |
| 39 | 4.33 / 3.78 / n.d. | GFTLNSYGIS | VIYSDGMRTFYGDSVK | GCAAGTFDS |
| 40 | n.d. / n.d. / n.d. | GFTLNSYGIS | VFYSDKRRTFYIDSVK | GRAAGTFDS |
| 41 | n.d. / n.d. / n.d. | GFTLNSYGIS | MIYSSGRITFYGDSVK | GRAAGTFDS |
| 42 | 3.66 / n.d. / 5.16 | GFTLNSYGIS | VIYPDGRRTTYGTSVK | GRAAGTFDS |
| 43 | 4.34 / n.d. / n.d. | GQTLNSYGIS | GIYSDGRRTFYADSVK | GRAAGTFDS |
| 44 | n.d. / n.d. / n.d. | GFTLNSYWIS | VIYSDCRRTFYGDSGK | GRAAGTFDS |
| 45 | n.d. / n.d. / n.d. | GFTLNSWGIS | VIFSMGRRTFYGDSVK | GRAAGTFDS |
| 46 | n.d. / n.d. / n.d. | GFTLNSYGIS | VIYSTGRRTFYGDSVK | RRAARTFDS |
| 47 | n.d. / n.d. / n.d. | GFTLNSYGIM | VIYSDGRRTFYGDSVK | SVAAGTFDS |
| 48 | n.d. / 3.12 / n.d. | GFQLNSYGIS | VIYSDGRRTFYGDSVK | GRAACCFDS |

The 4 strongest on average among those seen in every replicate, once more:

| CDR-H1 | CDR-H2 | CDR-H3 | log10 Kd, replicates |
|---|---|---|---|
| GHTLNSYGIS | VIYSDGRKTFYGDSVK | GRAAGTFVS | 2.07 / 2.47 / 2.05 |
| GFTLNSYGIS | VIYPDGRRTFYGDSCK | GRAAGTFDS | 3.59 / 3.03 / 3.89 |
| GFVLNSYGWS | VIYSDGRRTHYGDSVK | GRAAGTFDS | 3.11 / 4.58 / 3.36 |
| GNTLNSYGIS | VIYSDGRRTFYGDSVK | GQAAGTFDG | 4.27 / 3.41 / 3.72 |

Background: pairings of library AAYL49 with three empty control strains gave a value in 15% of cases (median 4.06, 5th percentile 2.83). Values in that range, when seen in few replicates, are hard to tell from nonspecific mating.